This is a sample that favours compounds with a hit; in the whole collection about 4.2% have one here.
HDAC3 inh: blocks human histone deacetylase 3 | O15379 | recombinant HDAC3, fluorogenic peptide/trypsin coupled, fluorescence | inhibition, % at 8.3 µM | 320,000 tested, 0.15% active; in the data active = inhibition above about 26%, passing the limit was not always enough
Yeast UUG start: modulators of start codon recognition fidelity in yeast; AID 602363; hit rate 0.13% among 350,000; activity score, % at 18.7 µM; S. cerevisiae UUG-firefly luciferase reporter, luminescence/redox ratio;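 active = replicate mean at a twofold rise or more, about +100% in these data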;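 note: firefly luciferase made from a UUG start codon reports start codon fidelity; reporter light over untreated wells divided by growth signal over untreated wells; some hits fall short of that in this replicate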
NALP1 yeast inh: blocks the NALP1 inflammasome reconstituted in yeast; S. cerevisiae NALP1/ASC/caspase-1 growth, X-gal OD620, 72 h; inhibition, % at 10 µM; 280,000 tested, 0.61% active; in the data active = inhibition mostly above about 24%, no sharp cut-off; inactive = mostly below about 32%
MC4R barr agon: activates human MC4R beta-arrestin recruitment; P32245; U2OS MC4R beta-arrestin complementation, luminescence; percent of melanotan II response, DMSO zero; activation, % at 8.9 µM; 360,000 tested, 0.98% active;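 active = activation above a per-plate cutoff, the mean activation of sample wells on that plate plus 3 SD, cut at about 8% in these data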
MC4R antagonist: antagonists of human melanocortin 4 receptor (MC4R); P32245; MC4R-expressing cells, MTII-stimulated cAMP, LANCE TR-FRET; 360,000 tested, 0.48% active; AID 540295; inhibition, % at 6.5 µM;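 active = inhibition above its plate's cutoff, the mean of tested wells on that plate plus 3 SD, cut at about 29% in these data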;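 note: 0% = Melanotan II alone and 100% = Melanotan II plus saturating MCL0020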
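Test system: U2OS cells stably expressing human melanocortin 4 receptor (MC4R); also added: Melanotan II challenge; compound: 6.5 µM single dose; timing: 30-min compound preincubation, 1-h Melanotan II challenge, 1-h detection, room temperature; signal: Eu-cAMP/anti-cAMP TR-FRET, emission 671 nm; repeats: one well per compound, no replicates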
ALR inh: inhibitors of human sulfhydryl oxidase ALR; AID 485317; inhibition, % (no concentration beside the values); purified ALR, DTT oxidation, H2O2 HRP-luminol luminescence; hit rate 3.8% among 290,000;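 active means mean and each replicate at 75% or more; inconclusive means only one of the two met; inactive means neither met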;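 further: stock transfer was 7.5 nL into about 7.5 µL; 0% = neutral wells and 100% = wells with inactivated enzyme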
* marks the source's active call; other numbers are inactive results; nt = no result.

#1 Cc1cc(-c2nsc(=O)o2)c(S(C)(=O)=O)s1
#2 O=C1N=C(N2CCN(c3ccccc3)CC2)S/C1=C\c1cn[nH]c1-c1ccccc1
#3 O=C1N=C(N2CCC(Cc3ccccc3)CC2)S/C1=C/c1cn[nH]c1-c1ccccc1
#4 CCCNC(=O)C[C@@H]1CC[C@H]2[C@@H](COc3ccc(NC(=O)c4cccc(OC)c4)cc3C(=O)N2C)O1
#5 CO[C@@H]1CN(C)C(=O)c2ccc(NC(=O)c3nc4ccccc4s3)cc2OC[C@@H](C)N(Cc2ccccc2)C[C@H]1C
#6 S=C(NNC(=S)Nc1ccc(Cl)cc1)NNc1ccccc1
#7 S=C(N=Nc1ccccc1)NNc1ccccc1
#8 COc1ccc(S(=O)(=O)Nc2ccc3c(c2)CC(=O)N([C@H](C)CO)C[C@@H](C)[C@H](CN(C)Cc2ccc(Cl)c(Cl)c2)O3)cc1
Screen / compound no. | 1 | 2 | 3 | 4 | 5 | 6 | 7 | 8
HDAC3 inh | 6 | 3 | -1 | nt | nt | nt | -3 | nt
Yeast UUG start | -14 | -10 | -22 | 19 | -8 | -12 | -30 | 12
NALP1 yeast inh | -28 | 25 | 3 | nt | nt | nt | 7 | nt
MC4R barr agon | -2 | 8.5* | 2 | nt | nt | -1 | -1 | nt
MC4R antagonist | 1 | -3 | 5 | nt | nt | 0 | -6 | nt
ALR inh | 99* | -5 | -22 | nt | nt | nt | 99* | nt

#9 O=C(CN1CCOc2ccccc21)NC1CCN(Cc2ccccc2)CC1
#10 O=C(CN1CCOc2ccccc21)NC1CCCCCCC1
#11 O=C(c1cc(-c2ccco2)nn1-c1cccc(Cl)c1)N1CCCCC1
#12 CCCCCCSc1nc(O)c(C2OC(=O)c3c2ccc(OC)c3OC)c(=O)n1CC (stereo unspecified)
#13 CCOc1ccccc1C(=O)OCC(=O)Nc1ncc(C(F)(F)F)cc1Cl
#14 O=C(COC(=O)c1cccc2ccccc12)Nc1ncc(C(F)(F)F)cc1Cl
#15 CCCn1cnc2cc(NCc3cccc(OC)c3)ccc21
#16 CCCn1cnc2cc(NCc3ccccc3O)ccc21
Screen / compound no. | 9 | 10 | 11 | 12 | 13 | 14 | 15 | 16
HDAC3 inh | 2 | 0 | 6 | 4 | 1 | 4 | -4 | -2
Yeast UUG start | -2 | -7 | -7 | 3 | 55 | -8 | -23 | -19
NALP1 yeast inh | 6 | nt | 37 | -6 | 8 | -5 | -13 | 8
MC4R barr agon | 0 | -1 | 1 | 0 | -1 | 8.7* | -2 | -1
MC4R antagonist | 3 | 1 | 31* | -2 | 1 | -3 | 3 | -1
ALR inh | 87* | 99* | 7 | 98* | -11 | -2 | 95* | 99*

Looked up above:
O=C(CN1CCOc2ccccc21)NC1CCCCCCC1 – ALR inh = 99*
O=C(c1cc(-c2ccco2)nn1-c1cccc(Cl)c1)N1CCCCC1 – ALR inh = 7
CCCn1cnc2cc(NCc3ccccc3O)ccc21 – MC4R barr agon = -1

Remaining list, next part:
#17 CCCn1nnnc1NCc1cccc(OC)c1
#18 CCCCn1cnc2cc(NCc3cccc(OC)c3O)ccc21
#19 CC(=O)N(C)C[C@H]1Oc2ncc(-c3cccc(F)c3)cc2C(=O)N([C@H](C)CO)C[C@@H]1C
#20 CCOC(=O)c1c(NC(=O)COC(=O)CCS(=O)(=O)c2ccc(C)cc2)sc(C)c1C
#21 C[C@H](CO)N1C[C@H](C)[C@@H](CN(C)C(=O)CN2CCOCC2)Oc2ncc(/C=C/c3ccccc3)cc2C1=O
#22 O=c1ccc2cc3c([nH]c4ccc(Br)cc43)oc-2c1O
#23 Brc1c(CSc2nc3ccccc3o2)nc2ncccn12
#24 Clc1c(CSc2nc3ccccc3o2)nc2ccccn12
Screen / compound no. | 17 | 18 | 19 | 20 | 21 | 22 | 23 | 24
HDAC3 inh | 12 | 4 | nt | -2 | nt | 38* | -10 | 4
Yeast UUG start | 2 | 2 | 17 | nt | -7 | -15 | -13 | -43
NALP1 yeast inh | 4 | -31 | nt | 14 | nt | 9 | 13 | 8
MC4R barr agon | -1 | -2 | nt | -1 | nt | -3 | -2 | 0
MC4R antagonist | 12 | 11 | nt | 2 | nt | -10 | 1 | -3
ALR inh | -2 | 33 | nt | 94* | nt | 99* | 100* | 98*

#25 C#Cc1ccc([C@H]2C=C(C(=O)N3CCOCC3)O[C@@H](OCCCCO)C2)cc1
#26 C[C@H](CO)N1C[C@H](C)[C@H](CN(C)Cc2ccc(C(=O)O)cc2)OCCCC[C@H](C)Oc2ccc(NC(=O)Nc3ccc(C(F)(F)F)cc3)cc2C1=O
#27 CC(C)COCC(O)CCC(=O)NNC(=S)Nc1ccccc1 (stereo unspecified)
#28 O=C(Cc1ccccc1)NNC(=S)Nc1ccccc1
#29 CCOc1cccc(C(=O)N/N=C/c2coc3ccccc3c2=O)c1
#30 O=C(CCc1ccc(O)cc1)N/N=C/c1coc2ccccc2c1=O
#31 O=C(N/N=C/c1coc2ccccc2c1=O)c1cc(O)cc(O)c1
#32 COc1ccc(C(=O)N/N=C\c2coc3ccccc3c2=O)cc1
Screen / compound no. | 25 | 26 | 27 | 28 | 29 | 30 | 31 | 32
HDAC3 inh | nt | nt | 0 | 3 | nt | 11 | nt | 89*
Yeast UUG start | -9 | 11 | nt | nt | 6 | -5 | nt | -2
NALP1 yeast inh | nt | nt | -34 | 4 | 6 | -2 | -2 | -12
MC4R barr agon | nt | nt | 0 | -1 | -1 | 1 | -1 | 0
MC4R antagonist | nt | nt | 5 | 2 | -3 | 0 | 17 | 14
ALR inh | nt | nt | 93* | 30 | 27 | 79* | nt | nt

Source: PubChem
